Experimental data reported in patent US10780082B2, “Macrocycle and composition comprising thereof” (Shenzhen TargetRx, Inc., priority 2016, dated 2020).

Test: Metabolic stability in rat liver microsomes
Assay type: in vitro ADME, SD rat
Conditions: rat liver microsomes 0.5 mg/mL, compound 1 μM
Method: Experiments in microsomes: Human liver microsomes: 0.5 mg/mL, Xenotech; Rat liver microsomes: 0.5 mg/mL, Xenotech; Coenzyme (NADPH/NADH): 1 mM, Sigma Life Science; Magnesium chloride: 5 mM, 100 mM phosphate buffer (pH 7.4).
Preparation of stock solution: Powder of the example compound 2-8 was accurately weighed and dissolved in DMSO to 5 mM.
Preparation of phosphate buffer (100 mM, pH7.4): A pre-formulated 0.5M potassium dihydrogen phosphate (150 mL) was mixed with 0.5M dibasic potassium phosphate (700 mL). The pH of the mixture was adjusted to 7.4 with 0.5M dibasic potassium phosphate solution. […]
Incubation of the samples: The stock solution of the respective compound was respectively diluted to 0.25 mM with an aqueous solution containing 70% acetonitrile, and used as a working solution, ready for use. […]
Metabolic stability assay: 300 μL of pre-chilled stop solution was added to each well of a 96-well deep well plate and placed on ice as a stop plate. […] 100 μL of the supernatant was added to a 96-well plate to which 100 μL of distilled water was previously added, mixed, and analyzed by LC-MS/MS.
Data analysis: The peak areas of the corresponding compound and internal standard were detected by LC-MS/MS system, and the ratio of the peak area of the compound to the internal standard was calculated.

Compound	t1/2 [h]
[2H]C([2H])([2H])n1nc2c(c1C#N)-c1cnc(N)c(c1)OC(C)c1cc(F)ccc1C(=O)N(C)C2 (racemic) [Compound 28]	>2.42
C[C@H]1Oc2cc(cnc2N)-c2c(nn(C)c2C#N)CN(C)C(=O)c2ccc(F)cc21 [PF-06463922, reference compound]	>2.42
